Results from patent US20220227840A1 (published 2022).

Protein sequences, listed by entry. Tags and fused reporters are not part of them. Residues count along the entry.
UniProt P13726, 33-251 limits assumed: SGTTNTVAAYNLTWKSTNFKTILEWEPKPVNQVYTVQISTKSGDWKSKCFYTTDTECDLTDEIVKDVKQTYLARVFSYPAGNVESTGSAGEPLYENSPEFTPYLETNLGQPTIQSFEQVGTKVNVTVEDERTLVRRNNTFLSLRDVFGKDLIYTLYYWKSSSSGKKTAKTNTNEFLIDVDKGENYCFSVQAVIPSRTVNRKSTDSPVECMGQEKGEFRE

Target: T1, tissue factor (TF) extracellular domains (UniProt P13726 33-251, limits assumed)
T1 construct: extracellular domain; also called purified tissue factor
Assay: SPR, Ab captured on anti-Fc, antigen injected

| Binder | Kd [nM] |
| --- | --- |
| D3H44/pertuzumab bispecific antibody, SMCA design 313*-337* (bispecific antibody) chain 1: not shown chain 2: not shown chain 3: not shown chain 4: DIQMTQSPSSLSASVGDRVTITCKASQDVSIGVAWYQQKPGKAWKLLIYSASYRYTGVPSRFSGSGSGTDFTLTISSLQPEDFATYYCQQYYIYPYTFGQGTKVEIKRTVAAPSVFIFPPSDEQLKSGTASVVCLLNNFYPREAKVQWKVDNALQSGNSQESVTEQDSKDSTYSLSSTLTLSKADYEKHKVYACEVTHQGLSSPVTKSFNRGEC | 0.9 |
| D3H44/pertuzumab bispecific antibody, SMCA design # 329*-330* (other placement of the Fc mutations) (bispecific antibody) chain 1: not shown chain 2: not shown chain 3: not shown chain 4: DIQMTQSPSSLSASVGDRVTITCKASQDVSIGVAWYQQKPGKAPKLLIYSASYRYTGVPSRFSGSGSGTDFTLTISSLQPEDFATYYCQQYYIYPYTFGQGTKVEIKRTVAAPSVAIFPPSDEQLKSGTAKVVCALNNFYPREAKVQWKVDNALQSGNSQESVTEQDSKDSTYSLSSTLTLSKADYEKHKVYACEVTHQGLSSPVTKSFNRGEC | 0.04 |
